Source: PubChem BioAssay (Broad Institute)
UUG fidelity: modulators of yeast start codon fidelity, primary screen, whole organism, S. cerevisiae, single point, plate reader | AID 602363, 2012 | actives 0.13% (n = 350,000) | activity score, % at 18.7 µM | S. cerevisiae UUG-firefly luciferase reporter, luminescence/redox ratio;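 active means replicate mean at a twofold rise or more, about +100% in these data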;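 further: firefly luciferase made from a UUG start codon reports start codon fidelity; reporter light over untreated wells divided by growth signal over untreated wells; some hits fall short of that in this replicate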
MLL AF4-AF9 inh: MLL-AF4/AF9 protein interaction inhibition; AlphaScreen, biotin-AF4 peptide binding to FLAG-AF9; AID 651704; actives 0.47% (n = 350,000); inhibition, % at 10 µM;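 active means every replicate reaching a set inhibition limit, whatever the replicate mean, cut at about 25% in these data; inconclusive means mean inhibition reaches that limit but some replicates miss it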;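 further: 0% = plate neutral control median and 100% = total signal loss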
S100A4 MyoIIA: blocks human S100A4 binding to myosin IIA peptide; P26447; S100A4/TAMRA-MyoIIA peptide fluorescence polarization; inhibition, % at 10.7 µM; actives 0.14% (n = 360,000); AID 652163;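 active means mean inhibition of at least 70% across replicates, with every replicate also reaching that level; inconclusive means mean inhibition reaches 70% but some replicates fall short; inactive means mean inhibition below 70%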
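incubation = readout 5 min after mixing, signal stable up to 60 min | system = S100A4 monomer protein | buffer or medium = HEPES pH 7.2 with CaCl2, KCl, NaCl, DTT, Triton | benchmarks = neutral control DMSO, positive control TFP | also added = fluorescent myosin IIA peptide, 5 nM | compound dosing = one concentration per compound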
ARNT TACC3 PPI: ARNT/TACC3 interaction disruption | inhibition, % at 9.99 µM | Q9Y6A5 | AlphaScreen His-ARNT PAS-B/GST-TACC3 binding, luminescence; TACC3 fragment carries E629A point mutation | actives 0.66% (n = 390,000);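 active means mean inhibition of replicates at least 50% and at least half of replicates each reaching 50%; inconclusive means half or more replicates reach 50% but mean below 50%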;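 further: 0% = complete ARNT plus TACC3 wells and 100% = ARNT alone without TACC3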
ERAP1 inh: inhibitors of human ERAP1 aminopeptidase. recombinant ERAP1, Leu-AMC fluorescence, 60 min. actives 0.15% (n = 340,000). inhibition, % at 10.7 µM;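 active means mean replicate inhibition of at least 30%, or all replicates individually reaching that 30% level; inactive means mean below 30% and not every replicate reaching it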;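 further: 0% = neutral control wells and 100% = L-leucinethiol positive control wells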
E-selectin induc: E-selectin induction on HUVECs; P16581; HUVEC E-selectin immunofluorescence imaging; normalized: neutral wells 0, TNF-alpha wells 100; activation, % at 7.58 µM; actives 0.37% (n = 260,000);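 active means mean E-selectin-positive cell signal at least 10% of the positive control, reached in at least 60% of replicates, without over 20% cell loss; inconclusive means no rule given, readout overlaps actives, possibly toxicity-flagged; inactive means the rest, including those meeting only one limit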
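assay system = HUVEC, human umbilical vein endothelial cells | input = 3,000 HUVEC seeded per well | medium = EGM-2 growth medium on 0.1% gelatin-coated wells | dosing = one compound dose added by pin transfer | signal = immunofluorescence imaging | read-out basis = % PE-positive cells | control set = TNF-alpha, DMSO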
AlphaScreen ctr: interferes with AlphaScreen signal, flagging false ARNT-TACC3 hits. shares compounds with ARNT TACC3 PPI. His-ARNT PASB-GST AlphaScreen artifact counter-screen, luminescence. AC50, µM (series often up to 68 µM), inactives show at the highest dose activity change, negative = signal decrease. actives 50% (n = 1,200);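 active means every separate test run was called active for a drop in luminescence, with AC50 within twice the top valid dose, actives reach about 71 µM in these data; inconclusive means the separate test runs disagree in their calls; inactive means all runs inactive, including signal change in the wrong direction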
AlphaScreen intf: interferes with the AlphaScreen assay signal; shares compounds with MLL AF4-AF9 inh; AlphaScreen interference counter-screen, signal luminescence; AC50, µM (series often up to 12 µM), inactives show at the highest dose activity change, negative = inhibition; actives 45% (n = 530); AID 720494; cut-off not given, nearly all actives have AC50 up to about 14 µM
An asterisk follows results filed as active; ? = inconclusive; . = no result given; ! = repeats disagree. Only some compounds are listed: those with a hit (about 1.3% of all), similar ones and a draw of the others.

SMILES | UUG fidelity | MLL AF4-AF9 inh | S100A4 MyoIIA | ARNT TACC3 PPI | ERAP1 inh | E-selectin induc | AlphaScreen ctr | AlphaScreen intf
COc1cccc(CNCc2ccccn2)c1OC | -5 | . | . | 61* | . | . | -5% | .
Cc1ccc(S(=O)(=O)N2CCOCC2)cc1NC(=O)CNCc1ccccn1 | -25 | -4 | -11 | 65* | 2 | 2 | 50µM* | .
Cc1ccc(S(=O)(=O)N2CCOCC2)cc1NC(=O)CNCc1ccccc1Cl | -3 | 2 | -2 | -1 | 1 | 0 | . | .
Cc1[nH]c(=O)[nH]c(=O)c1/C=N/NC(=O)[C@H](C)NC(=O)OC(C)(C)C | 1 | . | . | 54* | . | . | -4% | .
CC1Oc2ccccc2C=C1/C=N/NC(=O)[C@@H](C)NC(=O)OC(C)(C)C (stereo partly drawn) | . | 2 | -2 | 6 | 2 | 0 | . | .
COc1ccc(NC(=O)N(C)C[C@@H]2Oc3c(NC(=O)C4CCOCC4)cccc3C(=O)N([C@H](C)CO)C[C@H]2C)cc1 | 19 | -14 | 2 | 2 | -4 | 0 | . | .
CCCC(=O)NC(c1ccc(N(C)C)cc1)c1ccc2cccnc2c1O (stereo not drawn) | -9 | 50* | 2 | 60* | -3 | 0 | 18µM* | 1.5µM*
CCCC(=O)NC(c1ccccc1Cl)c1ccc2cccnc2c1O (stereo not drawn) | -1 | 4 | 4 | -6 | -4 | 0 | . | .
COc1ccccc1-c1ccc2c(c1)[C@H]1[C@H](CCN1S(=O)(=O)c1cccc(C)c1)[C@H](CO)N2 | . | 4 | -2 | . | 1 | 0 | . | .
CC(=O)NC(c1ccccc1)c1cc(Cl)c2cccnc2c1O (stereo not drawn) | -12 | 1 | -1 | 38 | -3 | 0 | . | .
Oc1c(C(c2ccccn2)N2CCCCC2)cc(Cl)c2cccnc12 (stereo not drawn) | -58 | 58* | 9 | 69* | . | 0 | 8.1µM* | 8.7µM*
CCCCCc1cc(=O)oc2c(C(CCN3CCCC3)c3ccc(N(C)C)cc3)c(OC)cc(OC)c12 (stereo not drawn) | -4 | 57* | -6 | 51* | 0 | 0 | 9.6µM* | 7µM*
O=C(NC1CCC1)[C@@H]1[C@@H](CO)[C@@H]2Cn3c(ccc(-c4ccc(F)cc4)c3=O)[C@@H]2N1Cc1ccccn1 | . | -3 | -1 | 2 | -8 | 0 | . | .
C[C@H]1CCCCO[C@H](CN(C)C)[C@@H](C)CN([C@@H](C)CO)C(=O)c2cc(NS(=O)(=O)c3ccccc3)ccc2O1 | 19 | -3 | -2 | 20 | -1 | 0 | . | .
CCN(CC)c1ccc(C(=C2C=CC(=[N+](CC)CC)C=C2)c2ccc(N(CC)CC)cc2)cc1 | -63 | 98* | 49 | 50* | 15 | . | 0.7µM* | 0.26µM*
COCCN=c1scc(-c2ccco2)n1/N=C/c1ccc(O)c(O)c1O | -19 | 33* | -8 | 55* | 3 | 3 | 34µM* | -6%
Oc1cc(-c2ccncc2)cc2cccnc12 | -33 | 29* | -2 | 67* | -6 | 0 | 12µM* | 9.1µM*
c1cc(-c2ccncc2)ccn1 | -20 | -12 | -4 | 18 | -4 | -2 | . | .
CN(C)CCCNC(=O)c1ccc(-c2cc(O)c3ncccc3c2)cc1 | -25 | 87* | 30 | 60* | 2 | 0 | 14µM* | 1.8µM*
C[C@@H]1CN([C@@H](C)CO)C(=O)c2cc(N(C)C)ccc2O[C@@H](C)CCCCO[C@H]1CN(C)C(=O)C1CCCCC1 | 10 | 0 | 7 | 13 | -1 | 0 | . | .

Brought forward from above: five compounds, followed by the next part.
SMILES | UUG fidelity | MLL AF4-AF9 inh | S100A4 MyoIIA | ARNT TACC3 PPI | ERAP1 inh | E-selectin induc | AlphaScreen ctr | AlphaScreen intf
COCCN=c1scc(-c2ccco2)n1/N=C/c1ccc(O)c(O)c1O | -19 | 33* | -8 | 55* | 3 | 3 | 34µM* | -6%
Oc1cc(-c2ccncc2)cc2cccnc12 | -33 | 29* | -2 | 67* | -6 | 0 | 12µM* | 9.1µM*
c1cc(-c2ccncc2)ccn1 | -20 | -12 | -4 | 18 | -4 | -2 | . | .
CN(C)CCCNC(=O)c1ccc(-c2cc(O)c3ncccc3c2)cc1 | -25 | 87* | 30 | 60* | 2 | 0 | 14µM* | 1.8µM*
C[C@@H]1CN([C@@H](C)CO)C(=O)c2cc(N(C)C)ccc2O[C@@H](C)CCCCO[C@H]1CN(C)C(=O)C1CCCCC1 | 10 | 0 | 7 | 13 | -1 | 0 | . | .
CC(C)(C)C1=CC(=Nc2ccccc2N)C=C(C(C)(C)C)C1=O | . | 73* | -6 | 54* | 3 | . | 1.5µM* | 2.7µM*
CCCCCCSc1cccc(-c2nc3ccc(C)cn3c2NC2CCCCC2)c1 | -19 | 0 | -13 | 3 | 2 | 0 | . | .
Cc1ccc2nc(-c3ccccn3)c(NC3CCCC3)n2c1 | -60 | 32* | -2 | 61* | 1 | 8 | 32µM* | -21%
CC(C)NC(=O)N(C)C[C@H]1OCCCC[C@@H](C)Oc2ccc(N(C)C)cc2C(=O)N([C@@H](C)CO)C[C@H]1C | . | 0 | 12 | 18 | -1 | 1 | . | .
CC(C)N1CCN(c2ccc(OCC3COC(Cn4cncn4)(c4ccc(Cl)cc4Cl)O3)cc2)CC1 (stereo not drawn) | . | 20 | -1 | 29 | -4 | -1 | . | -31%
COc1cccc(NC(=O)N2CC3(C2)[C@@H](c2ccccc2)[C@@H](CO)N3C(=O)C2CCCC2)c1 | . | 1 | 8 | . | 1 | 0 | . | .
CCN1CCN(Cc2ccc(NC(=O)c3cc(NC(=O)c4nccnc4N)cc(OC)c3)cc2C(F)(F)F)CC1 | -11 | ? | 2 | -2 | -2 | . | . | -22%
COc1ccc(NC(=O)N(C)C[C@H]2Oc3ccc(NS(=O)(=O)c4ccc(OC)cc4)cc3C(=O)N([C@@H](C)CO)C[C@H]2C)cc1 | -7 | 2 | 9 | 9 | 5 | 0 | . | .
CCOc1ccc(Nc2nc(NCC3CCCO3)c3ccccc3n2)cc1 (stereo not drawn) | . | 28* | -6 | 18 | -32 | 1 | . | -11%
CCCNC(=O)N1C[C@@H](O)COC[C@H]2O[C@H](CC(=O)NCc3ccncn3)CC[C@@H]21 | . | -4 | 8 | -9 | 1 | 0 | . | .
COc1ccc(-n2cc(CNCc3cccnc3)c(-c3cccc(F)c3)n2)cc1 | -14 | 0 | -8 | 0 | -1 | 1 | . | .
COc1ccc(-n2cc(CNCCc3cnc[nH]3)c(-c3cccc(F)c3)n2)cc1 | . | 30* | 1 | 36 | 9 | . | . | -19%
CCN(CC)CCOc1ccc(/C(=C(/Cl)c2ccccc2)c2ccccc2)cc1 | -9 | 31*! | 16 | 19 | -2 | 0 | . | -22%
CC(=O)N(C)C[C@H]1Oc2cc(C#CCC(C)C)ccc2S(=O)(=O)N([C@@H](C)CO)C[C@@H]1C | 28 | 3 | 0 | -1 | -1 | 0 | . | .
O=C(COc1cc(F)ccc1[N+](=O)[O-])Nc1ccc(N2CCOCC2)cc1 | . | 3 | -1 | 0 | 7 | 0 | . | .
O=C(COc1cc(F)ccc1[N+](=O)[O-])Nc1ccc(N2CCCCC2)cc1 | -4 | ? | 3 | 31 | 4 | -2 | . | -35%
O=C(C[C@@H]1CC[C@@H]2[C@H](COC[C@H](O)CN2Cc2cccc(C(F)(F)F)c2)O1)NCCc1ccccc1 | 39 | -11 | -8 | -15 | -1 | 0 | . | .
